Test system: muscarinic acetylcholine receptor (mAChR)
Assay: Protection of mAChR from inactivation by the endogenous LMW inhibitor, [3H]QNB (antagonist) binding
Parameters: species or system human
Conditions: 3H-QNB binding, FIGS. 4-7, 15, 17, 19

Substance: guanylimidodiphosphate
- protection of the mAChR from inactivation by the LMW inhibitor (in words): protect the mAChR from inactivation

From patent US9072756B2, “Methods and compositions for increasing the efficacy of an agent that directly or indirectly affects a muscarinic receptor through administration of a pyrophosphate analog” (HealthPartners Research Foundation, priority 2000, dated 2015)
